# Test system: HCoV-NL63
# Experiment: rNTP competitive inhibition assay
# Assay type: cell-based
# Conditions: VV116 2 μM or HS 300 μg/mL with different concentrations of rNTP; 24 h post-infection
substance,measurement,value
heparan sulfate,Effect of added rNTP on anti-coronavirus activity (NP Western blot),no effect

# Reference: publication PMC10748125 (Viruses, 2023)
